{
  "source": "PubChem BioAssay AID504797",
  "about": "(The Scripps Research Institute Molecular Screening Center, 2011)",
  "target": "cAMP-dependent protein kinase type II-beta regulatory subunit (Homo sapiens) (UniProt P31323)",
  "assay": "activators of PKA-R2B holoenzyme, confirmation, biochemical, fluorescence polarization, human (AID 504797)",
  "details": "PKA-R2B complex, at 11.4 µM, hits give high values",
  "note": "The entries are a selection whose mix differs from that of the whole data set. Calls of active or inactive are those of the source. Rule as the data show it: active = activation above about 19%; inactive = the rest.",
  "data": [
    {"smiles": "COc1ccc(NP(C)(=O)Oc2ccccc2OC)cc1", "note": "(stereo unspecified)", "values": [
      {"measurement": "activation", "value": "inactive: 6.16%"}
    ]}
  ]
}
